Values of other authors as cited in publication PMC5502072, “Safety, tolerability and pharmacokinetics of the fibroblast growth factor receptor inhibitor AZD4547 in Japanese patients with advanced solid tumours: a Phase I study” (Investigational New Drugs, 2017).

Set-up: method as in earlier work
Conditions: cited from earlier work

Substance: AZD4547
- Treatment-related DLTs observed (dose range 20–200 mg bid): renal failure, elevated liver enzymes, hyperphosphataemia, and mucositis
- Safety profile (monotherapy, several tumour types): acceptable safety profile
